For one molecule, Normal melting temperature results are on record in the NIST ThermoML archive (doi:10.1021/je900022k).

± gives the expanded uncertainty stated by the source.

For the data set the following is noted: Crystal; visual observation.

Regarding `Cl.NCCCC[C@H](N)C(=O)O` [L-lysine monohydrochloride], the Normal melting temperature stood at 263.00 ± 1 °C.
